From US9475840B2, “Protease-resistant compounds useful as shuttles through the blood-brain barrier and shuttle-cargo constructs” (UNIVERSITAT DE BARCELONA, priority 2012, dated 2016)

System: co-culture of brain endothelial cells and astrocytes
Test: Transport across the BBB, in vitro co-culture cell assay (transwell)
Settings: percentage of transport after a 2 hours assay; — = not detected in acceptor compartment

Rhodamine b-L-Lys(Antibody)-D-Pro-D-Trp-D-Val-D-Pro-D-Ser-D-Trp-D-Met-D-Pro-D-Pro-D-Arg-D-His-D-Thr-NH2 [Example 20]
Transport (%) (2 h): 0.30 ± 0.16%

Rhodamine b-L-Lys(Antibody)-D-Pro-D-Trp-D-Val-D-Pro-D-Ser-D-Trp-D-Met-D-Pro-D-Pro-D-Arg-D-His-D-Thr-NH2 [Example 17]
Transport (%) (2 h): 0.13 ± 0.08%

Rhodamine b-L-Lys(Antibody)-D-Pro-D-Trp-D-Val-D-Pro-D-Ser-D-Trp-D-Met-D-Pro-D-Pro-D-Arg-D-His-D-Thr-NH2 [Example 18]
Transport (%) (2 h): 0.15 ± 0.04%
